Experimental data: ChEMBL document CHEMBL1133436 (Bioorg Med Chem Lett, 2000)

Organism: Homo sapiens
Experiment: Selectivity for alpha-2a to that of alpha2b determined by their binding affinity ratios

| SMILES | Selectivity |
| --- | --- |
| O=C(NCCCCCCCNC(=O)[C@@H]1[C@H]2C[C@H]3c4[nH]c5ccccc5c4CCN3C[C@@H]2CC[C@@H]1O)[C@@H]1[C@H]2C[C@H]3c4[nH]c5ccccc5c4CCN3C[C@@H]2CC[C@@H]1O | 31.7 |
| O=C(NCCCCNC(=O)[C@@H]1[C@H]2C[C@H]3c4[nH]c5ccccc5c4CCN3C[C@@H]2CC[C@@H]1O)[C@@H]1[C@H]2C[C@H]3c4[nH]c5ccccc5c4CCN3C[C@@H]2CC[C@@H]1O | 12.3 |
| O=C(NCCNC(=O)[C@@H]1[C@H]2C[C@H]3c4[nH]c5ccccc5c4CCN3C[C@@H]2CC[C@@H]1O)[C@@H]1[C@H]2C[C@H]3c4[nH]c5ccccc5c4CCN3C[C@@H]2CC[C@@H]1O | 57.2 |

Continued, values first:

| Selectivity | SMILES |
| --- | --- |
| 123 | O=C(NCCCCCCNC(=O)[C@@H]1[C@H]2C[C@H]3c4[nH]c5ccccc5c4CCN3C[C@@H]2CC[C@@H]1O)[C@@H]1[C@H]2C[C@H]3c4[nH]c5ccccc5c4CCN3C[C@@H]2CC[C@@H]1O |
| 77.6 | O=C(NCCCCCNC(=O)[C@@H]1[C@H]2C[C@H]3c4[nH]c5ccccc5c4CCN3C[C@@H]2CC[C@@H]1O)[C@@H]1[C@H]2C[C@H]3c4[nH]c5ccccc5c4CCN3C[C@@H]2CC[C@@H]1O |
